Tested on: Parkinson's Disease (PD) patients suffering from sialorrhea
Conditions: human, in vivo
Excerpt: They were instructed to apply the drops to their tongues on an as needed basis.

## CCN(Cc1ccncc1)C(=O)C(CO)c1ccccc1 (stereo not shown) [tropicamide, N-ethyl-N-(4-pyridylmethyl) tropamide]
  patient-reported usefulness of treatment: treatment was useful

From patent US9433616B2, “Methods and compositions for decreasing saliva production” (priority 2005, dated 2016)
